We go through one molecule from PubChem BioAssay AID588683 (Broad Institute, 2011).

Protein sequences, listed by entry. Tags and fused reporters are not part of them.
UniProt Q14145, whole entry, looked up: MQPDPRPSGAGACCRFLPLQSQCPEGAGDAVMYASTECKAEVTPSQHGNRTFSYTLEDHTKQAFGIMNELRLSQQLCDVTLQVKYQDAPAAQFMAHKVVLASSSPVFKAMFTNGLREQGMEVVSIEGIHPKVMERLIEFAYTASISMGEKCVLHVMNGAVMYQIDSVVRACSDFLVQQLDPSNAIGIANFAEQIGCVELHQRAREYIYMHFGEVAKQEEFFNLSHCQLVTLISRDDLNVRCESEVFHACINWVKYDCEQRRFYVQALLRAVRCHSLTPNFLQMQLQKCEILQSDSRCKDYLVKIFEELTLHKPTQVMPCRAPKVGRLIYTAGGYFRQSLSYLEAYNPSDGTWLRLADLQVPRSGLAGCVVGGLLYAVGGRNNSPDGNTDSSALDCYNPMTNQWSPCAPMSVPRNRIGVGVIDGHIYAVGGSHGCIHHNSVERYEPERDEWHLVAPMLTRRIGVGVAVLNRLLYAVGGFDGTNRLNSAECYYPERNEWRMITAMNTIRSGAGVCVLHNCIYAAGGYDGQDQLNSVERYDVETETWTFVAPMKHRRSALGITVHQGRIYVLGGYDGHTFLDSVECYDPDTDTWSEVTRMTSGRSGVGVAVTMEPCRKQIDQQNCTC
UniProt Q16236, whole entry, looked up: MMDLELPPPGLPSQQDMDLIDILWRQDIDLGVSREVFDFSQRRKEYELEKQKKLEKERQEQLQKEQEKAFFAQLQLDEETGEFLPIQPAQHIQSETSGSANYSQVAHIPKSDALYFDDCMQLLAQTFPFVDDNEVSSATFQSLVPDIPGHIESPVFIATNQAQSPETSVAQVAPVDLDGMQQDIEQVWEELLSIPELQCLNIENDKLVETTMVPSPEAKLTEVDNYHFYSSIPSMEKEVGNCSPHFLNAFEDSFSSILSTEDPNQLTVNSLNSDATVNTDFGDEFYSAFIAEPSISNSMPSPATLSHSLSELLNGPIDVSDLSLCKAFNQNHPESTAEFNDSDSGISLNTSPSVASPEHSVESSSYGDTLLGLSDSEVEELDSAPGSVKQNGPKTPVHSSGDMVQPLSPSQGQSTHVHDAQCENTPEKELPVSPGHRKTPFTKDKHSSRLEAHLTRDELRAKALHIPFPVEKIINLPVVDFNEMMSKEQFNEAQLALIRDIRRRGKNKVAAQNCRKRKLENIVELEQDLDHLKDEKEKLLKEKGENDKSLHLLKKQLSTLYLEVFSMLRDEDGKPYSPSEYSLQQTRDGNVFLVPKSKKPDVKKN

Only a part is listed here, and it is no random draw. Results with a measured potency or affinity are listed apart. Activity calls are given as the source filed them. The rule behind the calls is not given here.

The target of the experiment is Kelch-like ECH-associated protein 1 (Homo sapiens) + Nuclear factor erythroid 2-related factor 2 (Homo sapiens) (UniProt Q14145+Q16236). Briefly: Keap1-Nrf2 protein-protein interaction inhibitors, dose response, biochemical, fluorescence polarization, cherry-picked samples (AID 588683).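 Note: Kelch domain of Keap1 binding a fluorescein-labelled 9mer Nrf2 peptide; more negative means stronger inhibition of peptide binding.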 The conditions noted are these: Keap1/Nrf2 peptide fluorescence polarization, plate reader; at 26 µM (top of the series). A general note: Fluorescence polarisation rises when a labelled molecule tumbles more slowly, as on binding a larger partner.

For `CCCN1CCC(Nc2cc(OC)cc(OC)c2)CC1`, the activity change, negative = inhibition is inactive: -9.72%.
